Assay results published in PubChem BioAssay AID1497 (Sanford-Burnham Center for Chemical Genomics, 2009).
Only a part is listed here, and it is no random draw. Some results for these compounds are left out of this collection, so the calls shown say nothing about other tests. Calls of active or inactive are those of the source.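 How the source made its calls: active means primary inhibition of 50% or more at 10 µM, then 40% or more on retest; inactive means the rest.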

Chains of the proteins cited; added tags and fusions are not shown.
UniProt P05107, whole entry, looked up: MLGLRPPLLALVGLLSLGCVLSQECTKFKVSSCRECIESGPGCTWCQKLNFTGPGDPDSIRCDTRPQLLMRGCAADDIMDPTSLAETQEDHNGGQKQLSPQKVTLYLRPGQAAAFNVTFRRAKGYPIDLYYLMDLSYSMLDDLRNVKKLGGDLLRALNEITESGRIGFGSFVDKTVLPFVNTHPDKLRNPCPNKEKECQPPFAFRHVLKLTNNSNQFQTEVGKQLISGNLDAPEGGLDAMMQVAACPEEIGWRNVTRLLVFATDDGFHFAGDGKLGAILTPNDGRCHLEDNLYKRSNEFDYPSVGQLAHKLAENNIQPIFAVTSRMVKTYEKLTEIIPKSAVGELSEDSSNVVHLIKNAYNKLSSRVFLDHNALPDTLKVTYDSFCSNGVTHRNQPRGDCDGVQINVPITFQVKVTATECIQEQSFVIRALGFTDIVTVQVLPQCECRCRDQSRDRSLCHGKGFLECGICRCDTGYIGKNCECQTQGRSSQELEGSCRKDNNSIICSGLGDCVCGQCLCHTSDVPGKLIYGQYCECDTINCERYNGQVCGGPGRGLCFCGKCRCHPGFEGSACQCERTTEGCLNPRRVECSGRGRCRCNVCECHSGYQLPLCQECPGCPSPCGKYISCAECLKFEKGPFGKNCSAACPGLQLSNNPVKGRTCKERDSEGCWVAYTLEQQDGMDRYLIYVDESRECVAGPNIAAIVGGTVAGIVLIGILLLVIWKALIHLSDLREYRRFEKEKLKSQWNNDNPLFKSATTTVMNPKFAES

The molecules below were run against Integrin beta-2 (Homo sapiens) + Integrin alpha-M (Homo sapiens) (UniProt P05107+P11215) (assay: inhibitors of CD11b/CD18 adhesion to fibrinogen, primary screen, K562 cells, luminescence (AID 1497)). Settings: ATPlite luminescence, at 10 µM, hits give high values, Mn2+ added to activate the integrin.

SMILES	inhibition
O=C(OC1CN2CCC1CC2)C(CO)(c1ccccc1)c1ccccc1 (stereo not drawn)	inactive: -5.1%
CN(C)c1cccc(C(=O)NCC2(N(C)C)CCCCC2)c1	inactive: -2.6%
CN(C)C1CCCC1OC(=O)C(O)(c1ccccc1)c1ccccc1 (stereo not drawn)	inactive: -4%
